# Measurements from patent US20070053894.
# The chains behind the UniProt entries cited, without tags or fusion partners. Residues count along the entry.
# UniProt P00747, 20-810: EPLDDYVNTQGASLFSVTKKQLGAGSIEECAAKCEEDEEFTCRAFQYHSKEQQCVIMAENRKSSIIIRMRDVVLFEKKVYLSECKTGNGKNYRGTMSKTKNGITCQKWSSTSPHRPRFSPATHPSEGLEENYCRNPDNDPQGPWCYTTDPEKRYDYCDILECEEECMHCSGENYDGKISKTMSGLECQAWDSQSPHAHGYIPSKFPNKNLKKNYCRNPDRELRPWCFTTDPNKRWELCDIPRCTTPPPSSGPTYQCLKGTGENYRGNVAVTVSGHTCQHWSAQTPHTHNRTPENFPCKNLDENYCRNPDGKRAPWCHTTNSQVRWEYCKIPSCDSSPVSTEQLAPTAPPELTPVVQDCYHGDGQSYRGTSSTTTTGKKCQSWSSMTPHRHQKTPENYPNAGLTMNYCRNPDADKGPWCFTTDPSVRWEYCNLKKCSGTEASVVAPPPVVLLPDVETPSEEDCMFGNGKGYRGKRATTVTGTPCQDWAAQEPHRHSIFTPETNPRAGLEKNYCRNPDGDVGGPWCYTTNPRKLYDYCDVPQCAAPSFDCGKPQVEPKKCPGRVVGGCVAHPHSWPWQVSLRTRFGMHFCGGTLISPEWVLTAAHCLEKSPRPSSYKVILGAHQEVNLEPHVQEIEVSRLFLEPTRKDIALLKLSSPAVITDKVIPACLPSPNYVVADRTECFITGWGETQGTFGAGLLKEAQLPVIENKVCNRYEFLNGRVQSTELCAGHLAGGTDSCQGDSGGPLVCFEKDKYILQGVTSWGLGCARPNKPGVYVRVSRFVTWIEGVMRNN
# Molecular target: plasminogen (UniProt P00747)
substance,measurement,value
pro-urokinase plasminogen activator (pro-uPA),"apparent Km of pro-uPA for plasminogen, with 250 nM p97",from 188±22 to 102±17 nM
same,"apparent Km of pro-uPA for plasminogen, without p97",from 188±22 to 102±17 nM
